# scFv variants of Ab-14 (light chain) against a SARS-CoV-2 spike peptide

Antigen: PDVDLGDISGINAS, a 14-residue peptide of the SARS-CoV-2 spike HR2 region.

The variants keep the heavy chain, the linker and the frameworks of Ab-14 (scFv order VH, three GGGGS repeats, VL).
VH: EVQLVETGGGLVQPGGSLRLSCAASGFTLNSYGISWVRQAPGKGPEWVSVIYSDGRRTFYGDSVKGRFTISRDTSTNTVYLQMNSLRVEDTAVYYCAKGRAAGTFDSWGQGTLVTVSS
VL: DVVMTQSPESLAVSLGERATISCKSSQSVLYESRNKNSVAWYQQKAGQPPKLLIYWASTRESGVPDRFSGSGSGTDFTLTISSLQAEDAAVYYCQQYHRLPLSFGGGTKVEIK

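Phage display of a naive human antibody library on the peptide gave the parent. The library (AAYL50) carries one to three amino acid substitutions per variant, with no insertions or deletions. AlphaSeq pools MATa yeast showing the antibodies with MATalpha yeast showing the peptide. Pairs that bind mate more often; barcode pairs of the diploids are counted by sequencing. Read counts were normalised to the haploid input and turned into Kd by a linear fit to BCL2-family pairs of known affinity, for each replicate. Each pool was mated in three replicate cultures.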

Positions count from residue 1 of the parent VL; S25M puts M in place of S. Values are log10 of the apparent Kd in nM; lower means stronger binding. Replicates are averaged; those with no signal do not enter the mean. "nd" means that the variant was in the library but no mating with the target was seen in any replicate; the authors take this as a sign of poor binding, and no number exists. Background: pairings of library AAYL50 with three empty control strains gave a value in 18% of cases (median 4.19, 5th percentile 2.99). Values in that range, when seen in few replicates, are hard to tell from nonspecific mating. In this assay the parent's reference entry averaged 0.65; its copy inside this library read 1.68.

changes | log10 Kd (nM), mean | detected
S25M N37Q L102Y | nd | 0/3
Y31T R34D V39A | 2.97 | 3/3
K24E S25N H98A | 3.10 | 3/3
S28G E32H R99C | 3.20 | 1/3
V39H Q96I H98E | nd | 0/3
S58A Q95F | nd | 0/3
V29G E61W Q95D | nd | 0/3
R60Q R99Q L100H | 4.32 | 1/3
S25P S26M A57T | 2.24 | 3/3
L30A V39G E61C | 0.92 | 3/3
K24L Q96K | 1.67 | 3/3
L30S W56L L100K | 4.73 | 2/3
S25D L100E P101S | nd | 0/3
T59G S62Y | 4.09 | 1/3
A57L Q96I S103Y | 4.07 | 3/3
S38T V39P P101M | 4.75 | 1/3
R34A V39M Y97R | 1.10 | 3/3
S26W Y31I E32Y | 5.01 | 2/3
W56F S62R Q96H | 3.27 | 3/3
V29K E61Q H98E | nd | 0/3
K24D Q27N S38H | nd | 0/3
S26Y Q96P L102K | 4.54 | 2/3
N35L H98A L102R | 1.10 | 3/3
K24E A40V L100R | nd | 0/3
V39H A40K W56K | nd | 0/3
Y31W S38P W56Q | 0.21 | 3/3
S25A N37Q V39L | 1.59 | 3/3
L30V Q96K P101W | nd | 0/3
W56T L102E | nd | 0/3
S38K V39E R60I | nd | 0/3
S26H S58N L100A | nd | 0/3
Y31I A40K S103F | 4.25 | 2/3
K36R L100Y | nd | 0/3
L30A S33L R60I | 4.01 | 2/3
K24P S62Q R99W | nd | 0/3
N37Y S62P | 0.68 | 3/3
Q27S P101W | 2.28 | 3/3
N37P R60L | 2.85 | 3/3
S28T S38M L100K | 3.88 | 2/3
S38P L100E L102C | 1.01 | 3/3
S62N H98Q L102Y | 1.12 | 3/3
N37T V39S A57Q | 4.43 | 3/3
S33T K36M V39L | 1.60 | 3/3
Q27A R34C T59K | 1.67 | 3/3
A40S S62Q | 2.64 | 3/3
S28F V29I R60M | 3.58 | 1/3
S25Q K36Q N37T | 2.14 | 3/3
S33L Y97A | 4.01 | 1/3
S26H N37S | 1.60 | 3/3
E32K W56M R99Q | 0.99 | 3/3
S26V A57R R99Y | 3.48 | 1/3
N37E E61P S62P | 4.03 | 1/3
K24N S25Y R34Q | 4.86 | 1/3
K36A V39S Y97S | 4.57 | 2/3
S33M S58Q L102G | nd | 0/3
S25D R99S | 0.61 | 3/3
S25F V29R P101D | 4.24 | 1/3
S38M R60L S62A | nd | 0/3
S25Y W56N P101N | 0.89 | 3/3
E32H N37F R99G | 3.55 | 3/3
L30R A40D Q95C | 4.22 | 2/3
Q27I Y31P T59V | 0.23 | 3/3
N37T A57T Q96S | 3.06 | 3/3
S26R V39G R60F | nd | 0/3
L30Y Y97W | nd | 0/3
S25L S62V L100Q | 0.72 | 3/3

Excerpt, the first 4 entries:

changes | log10 Kd (nM), mean | detected
S25M N37Q L102Y | nd | 0/3
Y31T R34D V39A | 2.97 | 3/3
K24E S25N H98A | 3.10 | 3/3
S28G E32H R99C | 3.20 | 1/3

The measurements come from Engelhart et al. 2022 (doi:10.1038/s41597-022-01779-4) through the FLAb antibody collection.